{"sequences": {"note": "Protein sequences, listed by entry. Tags and fused reporters are not part of them.", "UniProt P53609, whole entry, looked up": "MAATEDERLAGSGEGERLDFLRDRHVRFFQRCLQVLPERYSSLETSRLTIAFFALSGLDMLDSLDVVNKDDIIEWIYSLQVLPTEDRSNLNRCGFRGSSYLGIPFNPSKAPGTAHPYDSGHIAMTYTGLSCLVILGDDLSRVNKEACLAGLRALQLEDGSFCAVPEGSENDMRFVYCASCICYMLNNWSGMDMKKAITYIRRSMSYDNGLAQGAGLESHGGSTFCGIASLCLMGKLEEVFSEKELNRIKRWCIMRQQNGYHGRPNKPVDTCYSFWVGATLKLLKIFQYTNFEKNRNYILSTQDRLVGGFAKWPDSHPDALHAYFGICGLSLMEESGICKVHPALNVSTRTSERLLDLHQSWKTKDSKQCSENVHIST"}, "source": "ChEMBL document CHEMBL1145881", "about": "“Pyridone-containing farnesyltransferase inhibitors: synthesis and biological evaluation” (Bioorg Med Chem Lett, 2003)", "assay_type_in_all_cases": "protein-complex assay", "key": {"[1]": {"target": "Geranylgeranyl transferase type I (Homo sapiens, UniProt P49354+P53609)", "experiment": "In vitro inhibitory activity against Geranylgeranyl transferase type I"}, "[2]": {"target": "T1, Protein farnesyltransferase (Homo sapiens, UniProt P49354+P49356)", "experiment": "In vitro effective concentration against farnesyltransferase (FT)"}, "[3]": {"target": "T1, Protein farnesyltransferase", "experiment": "In vitro inhibitory activity against farnesyltransferase (FT)"}}}
{"smiles": "Cn1cncc1C(OCc1c(-c2cccc(Cl)c2)cc(C#N)c(=O)n1C)c1ccc(C#N)cc1", "note": "(stereo not drawn)", "values": [{"measurement": "IC50", "setting": "[1]", "result": 2700, "unit": "nM"}, {"measurement": "EC50", "setting": "[2]", "result": 0.5, "unit": "nM"}, {"measurement": "IC50", "setting": "[3]", "result": 0.44, "unit": "nM"}]}
